In this assay the test system is BT-474-R cells. As to the kind of experiment: WST assay, Herceptin resistant breast cancer cell growth. The conditions noted are these: single agent, five days; ERA-350 3-100 μM, trastuzumab 0.001-100 μg/mL. It counts as cell-based, human. As to the method:
The test used herceptin resistant breast cancer BT-474-R cells (provided by Dr. Kanzaki at the Okayama University) that were passaged (twice/week) under the conditions of 37° C. and 5% CO2-95% air by using D-MEM medium (Sigma, D6046-500 ML) containing 10% fetal bovine serum (biowest, S182-H-500).
BT-474-R cells were seeded on a 96-well plate at 5×10^3 cells/well. ERA-350 (3, 10, 30, 50, or 100 μM), trastuzumab (Selleck Chemicals, A^2007) (0.001, 0.01, 0.1, 1, 10, or 100 μg/mL), or a combination thereof was added, and the cells were cultured for five days. The cell proliferation capability for each well was then measured by a WST assay (DOJINDO LABORATORIES, Cell Counting Kit-8), and the inhibition percentage for each test compound relative to the control (well without test compound) was calculated.

Consider trastuzumab, for which the “Proliferation inhibitory action on BT-474-R cells (inhibition percentage relative to control)” value was “modest inhibitory action”.

The values above are taken from US20230310539A1, “TREATMENT OF DISEASE WITH EPOR ANTAGONIST” (Epo-Med Inc., priority 2020, published 2023).
